Molecular target: Melanocyte-stimulating hormone receptor (Mus musculus, UniProt Q01727)
Assay: Agonist activity at mouse MC1R expressed in HEK293 cells by CRE/beta-galactosidase reporter gene assay
Assay type: functional, cell-based

By UniProt entry, the sequences of proteins in these tests, tags left out. Where a name states a change or a piece, a line headed by the entry shows the natural chain unless it says otherwise.
UniProt Q01727: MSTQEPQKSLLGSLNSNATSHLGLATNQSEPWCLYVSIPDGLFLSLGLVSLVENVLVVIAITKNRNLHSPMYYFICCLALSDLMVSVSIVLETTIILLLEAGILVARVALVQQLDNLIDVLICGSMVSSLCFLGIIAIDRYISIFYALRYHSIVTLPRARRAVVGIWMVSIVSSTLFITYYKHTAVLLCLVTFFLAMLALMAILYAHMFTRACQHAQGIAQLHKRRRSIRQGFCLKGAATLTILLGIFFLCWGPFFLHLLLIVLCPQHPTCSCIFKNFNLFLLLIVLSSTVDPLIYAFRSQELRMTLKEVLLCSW

An EC50 of 0.112 µM was found for `CC(=O)N[C@@H](Cc1cnc[nH]1)C(=O)N[C@H](Cc1ccccc1)C(=O)N[C@@H](CCCN=C(N)N)C(=O)N[C@@H](Cc1c[nH]c2ccccc12)C(N)=O` in this work.

Reference: ChEMBL document CHEMBL1140128 (J Med Chem, 2008)
